In patent US11674182B2, “Biomarker for HER2-positive cancer and anti-HER2 therapy and applications thereof” (INDUSTRY-UNIVERSITY COOPERATION FOUNDATION HANYANG …, priority 2017, dated 2023):

Legend:
BT474 cells [1] = experiment: Cell viability test (SRB) and colony formation assay in BT474 cells; type: cell-based, human; settings: MEL-18-knockdown (shMEL) BT474 cells; 10 μg/ml trastuzumab, 5 days
Description: (§1) An in vitro toxicity test analysis kit (Sulforhodamine B based, TOX6) was purchased from Sigma-Aldrich (St. Louis, Mo., USA), and used according to the manufacturer's protocols. […] After five days, the cells were fixed by layering a TCA solution in the medium, and incubated at 4° C. for 1 hour. The fixed cells were washed with water several times, and stained with a 0.4% sulforhodamine B solution for 30 minutes. Subsequently, the stained cells were washed with a 1% acetic acid solution until remaining salts were no longer observed, and the incorporated dye was dissolved in a 10 mM Tris solution while gently stirring. The prepared plate was detected using a microplate reader at 490 nm.
After 2 weeks, the cells were fixed with a 4% formaldehyde solution for 5 minutes, washed with PBS, and stained with 0.02% crystal violet (C0775, Sigma-Aldrich) for 1 to 2 hours at room temperature and then washed again. The prepared plates were dried thoroughly, and the experiment was carried out.

SKBR3 cells = experiment: Cell viability test (SRB) in SKBR3 cells; type: cell-based, human; settings: MEL-18-overexpressing SKBR3 cells vs trastuzumab-treated control cells; 10 μg/ml
Description: as §1

HCC-1954 cells = experiment: Cell viability test in HCC-1954 cells; type: cell-based, human; settings: HCC-1954 cells with trastuzumab resistance due to I3KH1047R mutation, MEL-18 overexpression
Description: as §1

BT474 cells [2] = experiment: Orthotopic mouse xenograft model of BT474 cells; type: in vivo, NOD/SCID mice; settings: trastuzumab 20 mg/kg intraperitoneal twice weekly
Description: All animal experiments were approved by the Hanyang University Animal Care and Use Committee (Seoul, Korea). Four-week-old female NOD/SCID mice were purchased from Koatech (Pyeongtaek, Gyeonggi). For orthotopic xenografts, control and MEL-18-knockdown BT474 cells (2×10^6) were resuspended in 150 uL of a 1:1 mixture of PBS/Matrigel, and directly injected into breast fat pads of the mice (left, control; right, MEL-18 shRNA). One day before the cell injection into the mice, estradiol pellets (0.72 mg, 60-day release; Innovative Research of America, Sarasota, Fla., USA) were provided. […] The tumor size was measured twice weekly, and the mice were monitored daily for clinical signs of toxicity during a treatment period.
The tumor size was calculated as follows: Volume (mm^3)=(a×b^2)/2, wherein a is the largest diameter, and b is a vertical diameter.

trastuzumab
response of cells to trastuzumab (cell survival, SRB) (BT474 cells [1]): induced trastuzumab resistance
growth inhibitory effect of trastuzumab (SKBR3 cells): higher growth inhibitory effect
sensitivity of cells to trastuzumab (HCC-1954 cells): did not make the cells sensitive to trastuzumab
tumor growth response (BT474 cells [2]; MEL-18-knockdown BT474 xenograft): increased promoted tumor growth regardless of trastuzumab treatment
tumor growth response (BT474 cells [2]; control (shCon) BT474 xenograft): responded to trastuzumab
